{"source": "patent US8377900B2", "about": "“Coumermycin/novobicin-regulated gene expression system” (National Research Council of Canada, priority 2003, dated 2013)", "key": {"[1]": {"details": "cited from earlier work"}, "[2]": {"details": "cited from earlier work", "remark": "listed apart in the source"}, "K562 wild type cells": {"test_system": "K562 wild type cells", "experiment": "Flow cytometric analysis of apoptosis in K562 wild type (parental) cells", "type": "cell-based, Human", "details": "5 nM coumermycin, 36 hr", "from_the_text": "It has been reported that high-level expression of Bax (Bcl2-associated X protein) elicits apoptosis in a variety of human cancer cells (17). In malignant hematopoietic cells, including k562, Bax overexpression leads to apoptosis of the transfected cells through cytochrome C release (18). To evaluate the tightness of gene expression regulated by the chimeric transactivator, the apoptotic Bax gene was cloned into the transgene-expression cassette from the two-plasmid induction system previously described. […] Stable clones harboring the both plasmids were isolated and characterized following induction."}, "293A cells": {"test_system": "293A cells", "type": "cell-based, Human", "details": "10 μM, cell growth rate and CMV-GFP expression", "method": "To study whether novobiocin, the monomer of coumermycin, is able to switch off the coumermycin-induced expression of luciferase, various concentrations of novobiocin were incubated together with 5 nM coumermycin in 293A cells for 40 hr. […] At a concentration of 5 μM novobiocin, however, over 98% of the coumermycin-induced luciferase expression was suppressed (FIG. 5A)."}}, "data": [{"substance": "coumermycin", "values": [{"measurement": "in vivo half-life", "setting": "[1]", "result": 6, "unit": "h"}, {"measurement": "serum half-life", "setting": "[1]; serum, in vivo", "result": 5.5, "unit": "h"}, {"measurement": "toxicity in extensive animal testing", "setting": "[2]; concentrations effectively exerting antibacterial activity", "result": "no overt toxicity"}, {"measurement": "dose causing cellular toxicity in vivo", "setting": "[2]; in vivo", "result": 20, "unit": "µM"}, {"measurement": "cell death in parental cells", "setting": "K562 wild type cells", "result": "did not induce additional cell death"}, {"measurement": "cellular toxicity", "setting": "293A cells", "result": "do not exert any detectable cellular toxicity"}]}]}
